The values below are quoted from earlier work in US6576670B1, “Use of a 5HT2A and 5HT2A/C receptor antagonist for treating snoring and high resistance syndrome of upper anatomical airways” (Sanofi—Synthelabo, priority 1998, dated 2003).

For series [1], the system named is 5HT2 receptor. The conditions noted are these: in vivo; cited from earlier work.
The test system of series [2] is 5HT2 receptor. To be noted: rats; cited from earlier work.

Consider `Clc1ccc2c(c1)C(N1CCNCC1)=Nc1ccccc1O2` [amoxapine], for which the “slow wave sleep time” value in series [1] is recorded as “regulate or increase”. As to `CC[C@@H](CO)NC(=O)[C@@H]1C=C2c3cccc4c3c(cn4C)C[C@H]2N(C)C1` [methysergide], in series [2], the “apnea induced by 5-HT” value is recorded as “inhibit”.
